Assay [1] addresses T1, human CB2R (SNAP-CB2) (Homo sapiens, UniProt P34972). Put plainly: biochemical. It is filed as binding. Further details: truncated CB1R (CB1R91-472) and full-length CB2R (CB2R1–360); 5HT3A signal peptide (N, cleaved yes); expressed in transfected cells; membranes.
The target of assay [2] is T1, human CB2R (SNAP-CB2). Put plainly: biochemical.

Sequences of proteins named here, by UniProt entry; tags and fusion partners are left off.
UniProt P34972, whole entry: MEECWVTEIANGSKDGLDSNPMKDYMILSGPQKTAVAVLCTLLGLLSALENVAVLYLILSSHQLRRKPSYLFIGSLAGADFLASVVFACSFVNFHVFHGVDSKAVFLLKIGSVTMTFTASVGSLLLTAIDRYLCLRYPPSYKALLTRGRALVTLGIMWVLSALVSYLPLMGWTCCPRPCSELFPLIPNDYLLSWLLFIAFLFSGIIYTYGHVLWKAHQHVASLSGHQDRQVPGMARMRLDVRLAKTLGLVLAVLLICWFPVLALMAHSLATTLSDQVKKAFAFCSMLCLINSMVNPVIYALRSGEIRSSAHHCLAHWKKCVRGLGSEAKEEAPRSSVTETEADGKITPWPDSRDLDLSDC

One compound from publication PMC12015242, “A universal cannabinoid CB1 and CB2 receptor TR-FRET kinetic ligand-binding assay” (Frontiers in Pharmacology, 2025) can be followed below.

In the case of `CCCCCCC(C)(C)c1cc(OC)c([C@@H]2C=C(CO)[C@@H]3C[C@H]2C3(C)C)c(OC)c1` [HU-308], the Ki (usually a dissociation constant, usually derived from enzyme kinetics or from competition with a known ligand) on human CB2R (SNAP-CB2) [1] was 26.9 nM. For the same compound, the equilibrium dissociation constant (Kd) (usually the equilibrium constant for the complex coming apart) is 27.5 nM at human CB2R (SNAP-CB2) [2] (pK d (kinetic), 37°C) and 17.8 nM at human CB2R (SNAP-CB2) [2] (pKd (kinetic), 25°C).
